Experimental data reported in patent US7655670B2 (Janssen Pharmaceutica N.V., priority 2005, dated 2010).

Amino acid sequences for entries named in this document (tags omitted). A change or cut given only in a name is not applied to a line headed by its entry.
UniProt P41146: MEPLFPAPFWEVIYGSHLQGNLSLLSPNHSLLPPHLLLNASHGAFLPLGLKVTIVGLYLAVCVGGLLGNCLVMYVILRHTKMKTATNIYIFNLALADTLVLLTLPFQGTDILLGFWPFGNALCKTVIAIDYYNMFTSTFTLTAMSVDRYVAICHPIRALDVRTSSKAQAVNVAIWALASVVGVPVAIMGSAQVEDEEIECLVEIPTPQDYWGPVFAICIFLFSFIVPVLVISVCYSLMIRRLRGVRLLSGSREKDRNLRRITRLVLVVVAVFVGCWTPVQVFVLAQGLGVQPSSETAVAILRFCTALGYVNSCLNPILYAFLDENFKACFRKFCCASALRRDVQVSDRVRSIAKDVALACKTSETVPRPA

Each compound was assayed against human nociceptin receptor (ORL-1) (Homo sapiens, UniProt P41146) (assay: nociceptin receptor (ORL-1) binding assay, 125I-Tyr14-nociceptin displacement). Details: HEK293 cell membranes, 0.5 nM 125I-Tyr14-nociceptin; calculated mean where tested more than once.

Compound	IC50
CN1CCC2(CC1)C(=O)N(CCOC1CCCCO1)c1ccccc12 (centres unmarked)	> 10 µM
COC(=O)CN1C(=O)C2(CCN(Cc3ccc(-c4ccccc4)cc3)CC2)c2ccccc21	> 10 µM
CCN1CC2(CCN(CC3CCCCCCC3)CC2)c2ccc(OC)cc21 [Compound 63]	3.37 µM
CC(=O)N[C@@H](CSCC(O)CN1C(=O)C2(CCN(CC3CCCCCCC3)CC2)c2ccccc21)C(=O)O (some centres unmarked) [Compound 16]	0.11 µM
O=C(O)CN1C(=O)C2(CCN(CC3CCCCCCC3)CC2)c2ccccc21 [Compound 41]	> 10 µM
CCCN1C(=O)C2(CCN(CC3CCCCCCC3)CC2)c2cc(C(C)C)ccc21 [Compound 17]	> 10 µM
COC(=O)CN1C(=O)C2(CCN(C3Cc4cccc5cccc3c45)CC2)c2ccccc21 (centres unmarked) [Compound 30]	0.35 µM
COC(=O)CN1C(=O)C2(CCN(CCc3ccccc3)CC2)c2ccccc21	> 10 µM
COC(=O)CN1C(=O)C2(CCN(Cc3ccccc3-c3ccsc3)CC2)c2ccccc21	> 10 µM
O=C1N(CC2CCCCC2)c2ccccc2C12CCN(C1Cc3cccc4cccc1c34)CC2 (centres unmarked) [Compound 4]	> 10 µM
CCCCCCC(CCCC)CN1CCC2(CC1)C(=O)N(CC(=O)OC)c1ccccc12 (centres unmarked)	> 10 µM
